Experimental data taken from patent US9884854B2, “N-[(pyrimidinylamino)propanyl]-and N[(pyrazinylamino)proppanyl]arylcarboxamides” (Boehringer Ingelheim International GmbH, priority 2016, dated 2018).

The chains behind the UniProt entries cited, without tags or fusion partners.
UniProt O43613, whole entry, species assumed: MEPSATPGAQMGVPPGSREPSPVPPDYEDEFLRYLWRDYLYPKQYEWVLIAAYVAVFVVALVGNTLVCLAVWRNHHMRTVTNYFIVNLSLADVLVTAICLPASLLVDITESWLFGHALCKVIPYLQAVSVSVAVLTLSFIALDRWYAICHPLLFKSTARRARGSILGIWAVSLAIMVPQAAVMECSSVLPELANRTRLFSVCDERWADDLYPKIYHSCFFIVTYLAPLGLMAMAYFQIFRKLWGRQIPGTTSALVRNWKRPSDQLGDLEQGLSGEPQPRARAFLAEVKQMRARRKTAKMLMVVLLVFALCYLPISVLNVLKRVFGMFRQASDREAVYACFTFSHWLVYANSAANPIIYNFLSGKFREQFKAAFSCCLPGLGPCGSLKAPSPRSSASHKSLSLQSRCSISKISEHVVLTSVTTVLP

Columns and labels:
human MDR1 P-gp = experiment: Assay D: efflux in MDCK cells transfected with the human MDR1 gene; assay type: in vitro ADME, canine; settings: dog; MDCK-MDR1 monolayers, pH 7.4, 37° C.; read-out: MDCK efflux ratio (BA/AB)
Experimental: The MDCK assay provides information on the potential of a compound to pass the blood brain barrier. Permeability measurements across polarized, confluent MDCK-MDR1 cell monolayers grown on permeable filter supports are used as an in vitro absorption model: apparent permeability coefficients (PE) of the compounds across the MDCK-MDR1 cell monolayers are measured (pH 7.4, 37° C.) in apical-to-basal (AB) and basal-to-apical (BA) transport direction. The AB permeability (PEAB) represents drug absorption from the blood into the brain and the BA permeability (PEBA) drug efflux from the brain back into the blood via both, passive permeability as well as active transport mechanisms mediated by efflux and uptake transporters that are expressed on the MDCK-MDR1 cells, predominantly by the overexpressed human MDR1 P-gp. Identical or similar permeabilities in both transport directions indicate passive permeation, vectorial permeability points to additional active transport mechanisms. Higher PEBA than PEAB (PEBA/PEAB>5) indicates the involvement of active efflux mediated by MDR1 P-gp, which might compromises the goal to achieve sufficient brain exposure. […]
Apparent permeability coefficients (PE) of the compounds across the MDCK-MDR1 cell monolayers are measured (pH 7.4, 37° C.) in apical-to-basal (AB) and basal-to-apical (BA) transport direction. […]

OX1R = OX1R (Homo sapiens, UniProt O43613); settings: as described in WO2013/187466; cited from earlier work

- efflux ratio (human MDR1 P-gp): 0.8
Structure (SMILES): CCN(C(=O)c1cc(F)ccc1-c1ncccn1)[C@@H](C)Cn1nnc(-c2ccc(F)cc2)n1 [Example 70 in WO2013/187466, reference compound]
- OX2R IC50/OX1R IC50 (OX1R): 411
